Measured values: patent publication US20120004285A1, “ERBB-3 (HER3)-SELECTIVE COMBINATION THERAPY” (ENZON PHARMACEUTICALS, INC., priority 2008, published 2012)

Test system: A431 cells
Assay: Cell proliferation assay (MTS), A431
Type: cell-based, human
Settings: gefitinib alone, FIG. 6A
Protocol: Cells were routinely passaged 2-3 times weekly.
15PC-3 (Santaris Pharma): The human prostate cancer cell line 15PC-3 was cultured in DMEM (ATCC)+10% fetal bovine serum (FBS)+2 mM Glutamax™ I+gentamicin (25 μg/ml). A549 (ATCC): The human lung cancer cell line A549 was cultured in F12K Medium (ATCC)+10% FBS+2 mM Glutamax™ I+Penicillin (100 u/ml)/Streptomycin (100 μg/ml). DU145 (ATCC): The human prostate cancer cell line DU145 was cultured in Eagle's Minimum Essential Medium (ATCC)+10% FBS+2 mM Glutamax™ I+Penicillin (100 u/ml)/Streptomycin (100 μg/ml). A431 (ATCC): The human epidermoid cancer cell line A431 was cultured in DMEM (ATCC)+10% fetal bovine serum (FBS)+2 mM Glutamax™ I+Penicillin (100 u/ml)/Streptomycin (100 μg/ml). SKBR-3 (ATCC): The human breast cancer cell line SKBR3 was cultured in McCoy's 5A Medium. Modified (ATCC)+10% FBS+2 mM Glutamax™ I+Penicillin (100 u/ml)/Streptomycin (100 μg/ml).
Cells were seeded in 6-well plates (NUNC™) and treated when 50-60% confluent. The transfection of cells by ON180 was performed as described by the manufacturer using serum-free OptiMEM® (Gibco™) and 5 μg/ml Lipofectamine™-2000. ONCONT served as a negative control. The treated cells were incubated at 37° C. for 4 hours and then washed with OptiMEM®, after which regular serum-containing medium was added.

COc1cc2ncnc(Nc3ccc(F)c(Cl)c3)c2cc1OCCCN1CCOCC1 [gefitinib, reference compound]
sensitivity of cells to gefitinib: sensitive
